Data on 34 molecules can be found in patent US9216988B2, “Benzyl sulfonamide derivatives as RORc modulators” (Genentech, Inc., priority 2011, dated 2015).

The chains behind the UniProt entries cited, without tags or fusion partners. Residues count along the entry.
UniProt P51449, 269-508: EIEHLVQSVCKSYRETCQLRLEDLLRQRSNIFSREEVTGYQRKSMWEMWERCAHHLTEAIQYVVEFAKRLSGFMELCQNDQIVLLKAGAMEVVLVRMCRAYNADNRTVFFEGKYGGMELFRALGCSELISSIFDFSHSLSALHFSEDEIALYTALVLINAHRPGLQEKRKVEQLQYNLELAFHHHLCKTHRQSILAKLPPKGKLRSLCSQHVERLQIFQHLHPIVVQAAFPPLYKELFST

This assay has as its target RORc ligand binding domain (Homo sapiens (Human), UniProt P51449). As to conditions: read-out: RORc IC50; two values in a cell = separated enantiomers, stereochemical identity not determined.

As to `CC(=O)N1CCN(c2ccc(CN(CC(F)(F)F)S(=O)(=O)C(C)(C)c3ccccc3)c(F)c2)CC1` [Compound 106, 2-Phenyl-propane-2-sulfonic acid [4-(4-acetyl-piperazin-1-yl)-2-fluoro-benzyl]-(2,2,2-trifluoro-ethyl)-amide], the IC50 turned out to be 26 nM.
Regarding `CC(C)CN(Cc1ccc(N2CCN(S(=O)(=O)N(C)C)CC2)cc1)S(=O)(=O)Cc1ccccc1` [Compound 40, 4-{4-[(Isobutyl-phenylmethanesulfonyl-amino)-methyl]-phenyl}-piperazine-1-sulfonic acid dimethylamide], the IC50 stood at 120 nM.
The same measure for `CC(=O)N1CCN(c2ccc(CN(C3CCC3)S(=O)(=O)Cc3cc(F)ccc3F)c(F)c2)CC1` [Compound 87, N-[4-(4-Acetyl-piperazin-1-yl)-2-fluoro-benzyl]-N-cyclobutyl-C-(2,5-difluoro-phenyl)-methanesulfonamide]: 13 nM.
Consider `CC(=O)N1CCN(c2ccc(CN(CC(C)C)S(=O)(=O)Cc3ccccc3)cn2)CC1` [Compound 141, N-((6-(4-acetylpiperazin-1-yl)pyridin-3-yl)methyl)-N-isobutyl-1-phenylmethanesulfonamide], for which the 50% inhibitory concentration (IC50) worked out at 440 nM.
Consider `COc1cccc(S(=O)(=O)N(Cc2ccc(N3CCN(C(C)=O)CC3)cc2F)C2CCC2)c1` [Compound 29, N-[4-(4-Acetyl-piperazin-1-yl)-2-fluoro-benzyl]-N-cyclobutyl-3-methoxy-benzenesulfonamide], for which the IC50 turned out to be 36 nM.
The value for `CS(=O)(=O)N1CCC(c2ccc(CN(CC(F)(F)F)S(=O)(=O)Cc3ccccc3)c(F)c2)CC1` [Compound 61, N-[2-Fluoro-4-(1-methanesulfonyl-piperidin-4-yl)-benzyl]-C-phenyl-N-(2,2,2-trifluoro-ethyl)-methanesulfonamide] was 65 nM; that for `CC(C)CN(Cc1ccc(N[C@@H]2CCN(S(C)(=O)=O)C[C@H]2F)cc1)S(=O)(=O)Cc1ccccc1` [Compound 200, N-(4-(((3R,4R)-3-fluoro-1-(methylsulfonyl)piperidin-4-yl)amino)benzyl)-N-isobutyl-1-phenylmethanesulfonamide] was 10 nM.
The same measure for `CC(=O)N1CCC(Oc2ccc(CN(CC(C)C)S(=O)(=O)Cc3ccccc3)cc2)CC1` [Compound 150, N-(4-((1-acetylpiperidin-4-yl)oxy)benzyl)-N-isobutyl-1-phenylmethanesulfonamide]: 120 nM; for `CC(=O)N1CCN(c2ccc(CN(C3CCC3)S(=O)(=O)c3ccc(C(F)(F)F)cc3)c(F)c2)CC1` [Compound 117, N-[4-(4-Acetyl-piperazin-1-yl)-2-fluoro-benzyl]-N-cyclobutyl-4-trifluoromethyl-benzenesulfonamide]: 50 nM.
The value for `CC(=O)N1CCN(c2ccc(CN(C3CCC3)S(=O)(=O)CCc3ccccc3)c(F)c2)CC1` [Compound 44, 2-Phenyl-ethanesulfonic acid [4-(4-acetyl-piperazin-1-yl)-2-fluoro-benzyl]-cyclobutyl-amide] was 106 nM; that for `CC(=O)N1CCN(c2ccc(CN(C3CCC3)S(=O)(=O)c3ccc(OC(F)(F)F)cc3)c(F)c2)CC1` [Compound 67, N-[4-(4-Acetyl-piperazin-1-yl)-2-fluoro-benzyl]-N-cyclobutyl-4-trifluoromethoxy-benzenesulfonamide] was 290 nM; that for `CC(C)CN(Cc1ccc(N2CC(C3CCOCC3)C2)cc1)S(=O)(=O)Cc1ccccc1` [Compound 197, N-isobutyl-1-phenyl-N-(4-(3-(tetrahydro-2H-pyran-4-yl)azetidin-1-yl)benzyl)methanesulfonamide] was 69 nM.
In the case of `CC(=O)N1CCN(c2ccc(CN(C3CCC3)S(=O)(=O)c3ccccc3C)c(F)c2)CC1` [Compound 36, N-[4-(4-Acetyl-piperazin-1-yl)-2-fluoro-benzyl]-N-cyclobutyl-2-methyl-benzenesulfonamide], the IC50 was found to be 70 nM.
The same measure for `CC(C)CN(Cc1ccc(OC2CCN(S(C)(=O)=O)CC2)cc1)S(=O)(=O)Cc1ccccc1` [Compound 159, N-isobutyl-N-(4-((1-(methylsulfonyl)piperidin-4-yl)oxy)benzyl)-1-phenylmethanesulfonamide]: 6 nM; for `CC(=O)N1CCN(c2ccc(CN(CC(F)(F)F)S(=O)(=O)C(C)c3ccccc3)c(F)c2)CC1` (stereo not shown) [Compound 15, 1-Phenyl-ethanesulfonic acid [4-(4-acetyl-piperazin-1-yl)-2-fluoro-benzyl]-(2,2,2-trifluoro-ethyl)-amide]: 10 nM.
With `CC(=O)N1CCN(c2ccc(CN(C3CCC3)S(=O)(=O)Cc3ccc(Cl)cc3)c(F)c2)CC1` [Compound 86, N-[4-(4-Acetyl-piperazin-1-yl)-2-fluoro-benzyl]-C-(4-chloro-phenyl)-N-cyclobutyl-methanesulfonamide], the IC50 was determined as 36 nM.
The value for `CC(=O)N1CCN(c2ccc(CN(C3CCC3)S(=O)(=O)Cc3cccc(F)c3)c(F)c2)CC1` [Compound 90, N-[4-(4-Acetyl-piperazin-1-yl)-2-fluoro-benzyl]-N-cyclobutyl-C-(3-fluoro-phenyl)-methanesulfonamide] was 25 nM; that for `CC(=O)N1CCN(c2ccc(CN(C3CCC3)S(=O)(=O)c3cccc(C#N)c3)c(F)c2)CC1` [Compound 68, N-[4-(4-Acetyl-piperazin-1-yl)-2-fluoro-benzyl]-3-cyano-N-cyclobutyl-benzenesulfonamide] was 487 nM; that for `CCN1CC[C@H](Nc2ccc(CN(CC(C)C)S(=O)(=O)Cc3ccccc3)cc2)[C@H](F)C1` [Compound 208, N-(4-(((3R,4S)-1-ethyl-3-fluoropiperidin-4-yl)amino)benzyl)-N-isobutyl-1-phenylmethanesulfonamide] was 1600 nM.
The same measure for `CC(C)CN(Cc1ccc(N2CCC3(CC2)COC3)cc1)S(=O)(=O)Cc1ccccc1` [Compound 183, N-(4-(2-oxa-7-azaspiro[3.5]nonan-7-yl)benzyl)-N-isobutyl-1-phenylmethanesulfonamide]: 47 nM; for `CC(C)CN(Cc1ccc(N2CCC3(CCOC3)C2)cc1)S(=O)(=O)Cc1ccccc1` (stereo not shown) [Compound 184, N-(4-(2-oxa-7-azaspiro[4.4]nonan-7-yl)benzyl)-N-isobutyl-1-phenylmethanesulfonamide]: 56 nM; for `CC(=O)N1CCN(c2ccc(CN(C3CCC3)S(=O)(=O)c3ccccc3)c(F)c2)CC1` [Compound 135, N-[4-(4-Acetyl-piperazin-1-yl)-2-fluoro-benzyl]-N-cyclobutyl-benzenesulfonamide]: 249 nM.
The value for `CC(=O)N1CCN(c2ccc(CN(C3CCC3)S(=O)(=O)Cc3ccc(F)cc3)c(F)c2)CC1` [Compound 91, N-[4-(4-Acetyl-piperazin-1-yl)-2-fluoro-benzyl]-N-cyclobutyl-C-(4-fluoro-phenyl)-methanesulfonamide] was 17 nM; that for `CC(=O)N1CCC(c2ccc(CN(CC(F)(F)F)S(=O)(=O)Cc3ccccc3)c(F)c2)CC1` [Compound 62, N-[4-(1-Acetyl-piperidin-4-yl)-2-fluoro-benzyl]-C-phenyl-N-(2,2,2-trifluoro-ethyl)-methanesulfonamide] was 44 nM.
Regarding `CC(=O)N1CCN(c2ccc(CN(C3CCC3)S(=O)(=O)c3cc(Cl)cc(Cl)c3)c(F)c2)CC1` [Compound 97, N-[4-(4-Acetyl-piperazin-1-yl)-2-fluoro-benzyl]-3,5-dichloro-N-cyclobutyl-benzenesulfonamide], the IC50 stood at 6 nM.
The value for `CC(C)CN(Cc1ccc(N2C[C@H]3COC[C@H]3C2)cc1)S(=O)(=O)Cc1ccccc1` [Compound 187, N-isobutyl-1-phenyl-N-(4-((3aR,6aS)-tetrahydro-1H-furo[3,4-c]pyrrol-5(3H)-yl)benzyl)methanesulfonamide] was 130 nM; that for `CC(=O)N1CCN(c2ccc(CN(C3CCC3)S(=O)(=O)c3cc(F)cc(F)c3)c(F)c2)CC1` [Compound 116, N-[4-(4-Acetyl-piperazin-1-yl)-2-fluoro-benzyl]-N-cyclobutyl-3,5-difluoro-benzenesulfonamide] was 49 nM; that for `CC(=O)N1CCN(c2ccc(CN(C3CCC3)S(=O)(=O)Cc3ccccc3F)c(F)c2)CC1` [Compound 92, N-[4-(4-Acetyl-piperazin-1-yl)-2-fluoro-benzyl]-N-cyclobutyl-C-(2-fluoro-phenyl)-methanesulfonamide] was 10 nM.
The value for `CC(=O)N1CCN(c2ccc(CN(C3CCC3)S(=O)(=O)Cc3ccc(F)cc3F)c(F)c2)CC1` [Compound 88, N-[4-(4-Acetyl-piperazin-1-yl)-2-fluoro-benzyl]-N-cyclobutyl-C-(2,4-difluoro-phenyl)-methanesulfonamide] was 11 nM; that for `CC(=O)N1CCN(c2ccc(CN(C3CCC3)S(=O)(=O)c3cccc(Cl)c3)c(F)c2)CC1` [Compound 18, N-[4-(4-Acetyl-piperazin-1-yl)-2-fluoro-benzyl]-3-chloro-N-cyclobutyl-benzenesulfonamide] was 22 nM; that for `COc1ccc(S(=O)(=O)N(Cc2ccc(N3CCN(C(C)=O)CC3)cc2F)C2CCC2)cc1` [Compound 45, N-[4-(4-Acetyl-piperazin-1-yl)-2-fluoro-benzyl]-N-cyclobutyl-4-methoxy-benzenesulfonamide] was 115 nM.
For `CC(C)CN(C(C)c1ccc(N2CCN(S(=O)(=O)N(C)C)CC2)cc1)S(=O)(=O)Cc1ccccc1` (stereo in doubt) [Compound 126, 4-{4-[(R)-1-(Isobutyl-phenylmethanesulfonyl-amino)-ethyl]-phenyl}-piperazine-1-sulfonic acid dimethylamide], the IC50 amounted to 3700 nM.
The value for `CC(=O)N1CCN(c2ccc3c(c2)OCCN(S(=O)(=O)Cc2ccccc2)C3)CC1` [Compound 58, 1-[4-(4-Phenylmethanesulfonyl-2,3,4,5-tetrahydro-benzo[f][1,4]oxazepin-8-yl)-piperazin-1-yl]-ethanone] was 3500 nM; that for `CC(C)CN(Cc1ccc(N2CCC(CS(C)(=O)=O)CC2)cc1)S(=O)(=O)Cc1ccccc1` [Compound 120, N-Isobutyl-N-[4-(4-methanesulfonylmethyl-piperidin-1-yl)-benzyl]-C-phenyl-methanesulfonamide] was 100 nM.
